{"source": "patent US11702475B2", "about": "“Cysteine engineered fibronectin type III domain binding molecules” (Janssen Biotech, Inc., priority 2013, dated 2023)", "key": {"[1]": {"details": "mouse, in vivo"}, "[2]": {"tested_on": "H292-HGF human lung cancer xenograft", "test": "Efficacy of bispecific molecule and other inhibitors in subcutaneous H292-HGF xenograft model", "type": "in vivo, SCID/Beige mice"}}}
{"substance": "cetuximab", "values": [{"measurement": "toxicity / body weight loss / tolerability (in words)", "setting": "[1]", "value": "well tolerated"}, {"measurement": "tumor growth delay compared with the vehicle group", "setting": "[2]; at tumor size of 1,000 mm^3, doses as in E46", "value": 17, "unit": "days"}, {"measurement": "Tumor volume (mm^3)", "setting": "[2]; day 7 after tumor inoculation (start of treatment), mean ± SEM, bispecific 25 mg/kg, Crizotinib 50 mg/kg, Erlotinib 50 mg/kg, Cetuximab 1 mg/mouse", "value": "139 ± 10", "unit": "mm^3"}, {"measurement": "Tumor volume (mm^3)", "setting": "[2]; day 9 after tumor inoculation, mean ± SEM, bispecific 25 mg/kg, Crizotinib 50 mg/kg, Erlotinib 50 mg/kg, Cetuximab 1 mg/mouse", "value": "168 ± 13", "unit": "mm^3"}, {"measurement": "Tumor volume (mm^3)", "setting": "[2]; day 13 after tumor inoculation, mean ± SEM, bispecific 25 mg/kg, Crizotinib 50 mg/kg, Erlotinib 50 mg/kg, Cetuximab 1 mg/mouse", "value": "212 ± 20", "unit": "mm^3"}, {"measurement": "Tumor volume (mm^3)", "setting": "[2]; day 16 after tumor inoculation, mean ± SEM, bispecific 25 mg/kg, Crizotinib 50 mg/kg, Erlotinib 50 mg/kg, Cetuximab 1 mg/mouse", "value": "252 ± 28", "unit": "mm^3"}, {"measurement": "Tumor volume (mm^3)", "setting": "[2]; day 20 after tumor inoculation, mean ± SEM, bispecific 25 mg/kg, Crizotinib 50 mg/kg, Erlotinib 50 mg/kg, Cetuximab 1 mg/mouse", "value": "371 ± 48", "unit": "mm^3"}, {"measurement": "T/C value", "setting": "[2]; day 23, doses as in E46", "value": 28, "unit": "%"}, {"measurement": "T/C (%)", "setting": "[2]; day 23, mean volume of treated vs control group, doses as in the Treatment column", "value": 28, "unit": "%"}, {"measurement": "Tumor Size (mm^3) at day 23", "setting": "[2]; day 23, mean ± SEM, bispecific 25 mg/kg, Crizotinib 50 mg/kg, Erlotinib 50 mg/kg, combination 50 mg/kg + 50 mg/kg, Cetuximab 1 mg/mouse", "value": "485 ± 61", "unit": "mm^3"}, {"measurement": "mean tumor size", "setting": "[2]; day 23 after tumor inoculation, ECB38 25 mg/kg, Crizotinib 50 mg/kg, Erlotinib 50 mg/kg, Cetuximab 1 mg/mouse", "value": 485, "unit": "mm^3"}, {"measurement": "Tumor volume (mm^3)", "setting": "[2]; day 23 after tumor inoculation, mean ± SEM, bispecific 25 mg/kg, Crizotinib 50 mg/kg, Erlotinib 50 mg/kg, Cetuximab 1 mg/mouse", "value": "485 ± 61", "unit": "mm^3"}, {"measurement": "Tumor volume (mm^3)", "setting": "[2]; day 27 after tumor inoculation, mean ± SEM, bispecific 25 mg/kg, Crizotinib 50 mg/kg, Erlotinib 50 mg/kg, Cetuximab 1 mg/mouse", "value": "640 ± 82", "unit": "mm^3"}, {"measurement": "Tumor volume (mm^3)", "setting": "[2]; day 30 after tumor inoculation, mean ± SEM, bispecific 25 mg/kg, Crizotinib 50 mg/kg, Erlotinib 50 mg/kg, Cetuximab 1 mg/mouse", "value": "869 ± 100", "unit": "mm^3"}, {"measurement": "antitumor activity (in words)", "setting": "[2]; doses as in E46", "value": "significant antitumor activities"}, {"measurement": "T-C (days) at 1000 mm^3", "setting": "[2]; tumor growth delay to mean tumor size 1000 mm^3 vs vehicle, doses as in the Treatment column", "value": 17, "unit": "days"}]}
